Reference: PubChem BioAssay AID1452 (National Center for Advancing Translational Sciences (NCATS), 2008)
The entries are a selection whose mix differs from that of the whole data set. Active and inactive are the calls of the source. Calls come from the whole dose curve; as a rule, active = well fitted inhibition curve with a large enough effect; inconclusive = small, poorly fitted or top-dose-only effect; inactive = flat fitted curve, though single readings scatter.

Sequences of proteins named here, by UniProt entry; tags and fusion partners are left off. A change or cut given only in a name is not applied to a line headed by its entry.
UniProt P18054: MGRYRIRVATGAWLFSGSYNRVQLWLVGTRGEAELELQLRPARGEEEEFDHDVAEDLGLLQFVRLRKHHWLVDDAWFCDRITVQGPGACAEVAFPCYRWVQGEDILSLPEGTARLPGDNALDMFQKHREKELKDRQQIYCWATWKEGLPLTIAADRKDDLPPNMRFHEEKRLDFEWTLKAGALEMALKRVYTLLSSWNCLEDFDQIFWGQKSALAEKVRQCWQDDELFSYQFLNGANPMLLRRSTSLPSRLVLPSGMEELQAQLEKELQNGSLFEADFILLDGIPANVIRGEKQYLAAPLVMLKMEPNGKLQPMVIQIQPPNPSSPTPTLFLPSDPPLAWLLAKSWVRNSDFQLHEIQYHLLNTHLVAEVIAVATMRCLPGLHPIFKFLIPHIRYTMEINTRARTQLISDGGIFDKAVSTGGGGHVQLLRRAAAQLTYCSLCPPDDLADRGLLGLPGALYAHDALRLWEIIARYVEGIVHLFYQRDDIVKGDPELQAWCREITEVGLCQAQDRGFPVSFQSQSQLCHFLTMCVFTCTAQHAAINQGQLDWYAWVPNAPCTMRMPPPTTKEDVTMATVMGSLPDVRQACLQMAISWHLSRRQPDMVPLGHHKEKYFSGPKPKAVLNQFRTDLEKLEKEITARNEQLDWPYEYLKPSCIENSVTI

biological target: Polyunsaturated fatty acid lipoxygenase ALOX12 (Homo sapiens) (UniProt P18054); assay: qHTS Assay for Inhibitors of 12-hLO (12-human lipoxygenase); conditions: purified 12-hLO, xylenol orange hydroperoxide absorbance; note: nearly all actives have a fitted effect of over 55% in size
Excerpt: Assay Provider: Holman, T.R., University of California, Santa Cruz Screening Center PI: Austin, C.P. Screening Center: NIH Chemical Genomics Center [NCGC] Human lipoxygenase 12hLO is a member of the closely related lipoxygenase family of enzymes which catalyze the site-specific oxidation of arachidonic acid to various hormone precursor molecules and as such is a candidate for drug development in a variety of disease areas, such as cancer and inflammation. Inhibition of 12hLO activity was screened by utilizing arachidonic acid as a substrate. The extent of hydroperoxide product formation was measured by a secondary chromogenic reaction in which xylenol orange (XO, Sigma-Aldrich, cat. number 39,818-7) reacts with the ferric ions produced from the reaction between the hydroperoxide and ferrous ions. The Fe(III)-XO complex is characterized with red-shifted absorbance at 560 nm. A purified preparation of human 12hLO was supplied by Professor Ted Holman, University of California, Santa Cruz.
Assay Protocol: Buffer: 25 mM Hepes pH 7.0, 0.01% Triton X-100. Reagents/Controls: Buffer in columns 3 and 4 as negative control (no enzyme). […] The absorbance at 405 and 573 nm were measured using ViewLux (Perkin-Elmer) High-throughput CCD imager and absorbance protocol settings. The 573-to-405 absorbance ratio was used to compute reaction progress.
Potency is the fitted concentration of half-maximal effect.

SMILES | Potency
COc1cccc(CNc2ccc(S(=O)(=O)Nc3nccs3)cc2)c1O | active: 15.8 µM
CC[n+]1c(/C=C/N(C)c2ccccc2)oc2ccc(Cl)cc21 | active: 20 µM
